For assay [1], the target named is μ-opioid receptor (Homo sapiens, UniProt P35372). The assay is described as follows: μ-opioid receptor [35S]GTPγS functional assay, U-2 OS cells. The following applies: relative to DAMGO. It counts as biochemical. (Binding of GTPγS marks nucleotide exchange on a G protein.)
The target of assay [2] is κ opioid receptor (Homo sapiens, UniProt P41145). In words: κ-opioid receptor radioligand dose-displacement binding assay ([3H]-U69,593). The settings on record: read-out: Ki Opioid Receptor κ; HEK-293 or CHO cells.

Sequences of proteins named here, by UniProt entry; tags and fusion partners are left off. A change or cut given only in a name is not applied to a line headed by its entry.
UniProt P35372, whole entry, looked up: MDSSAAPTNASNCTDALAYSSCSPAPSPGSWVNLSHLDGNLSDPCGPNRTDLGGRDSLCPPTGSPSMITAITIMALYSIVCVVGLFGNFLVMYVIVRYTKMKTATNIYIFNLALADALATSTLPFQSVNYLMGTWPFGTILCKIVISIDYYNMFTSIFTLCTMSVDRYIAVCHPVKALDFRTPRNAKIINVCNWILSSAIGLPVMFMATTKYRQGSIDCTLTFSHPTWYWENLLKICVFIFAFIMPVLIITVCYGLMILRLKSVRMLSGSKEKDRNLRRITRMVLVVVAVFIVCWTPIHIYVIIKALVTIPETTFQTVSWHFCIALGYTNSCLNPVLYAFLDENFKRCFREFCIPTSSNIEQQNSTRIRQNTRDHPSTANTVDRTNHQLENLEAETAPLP
UniProt P41145: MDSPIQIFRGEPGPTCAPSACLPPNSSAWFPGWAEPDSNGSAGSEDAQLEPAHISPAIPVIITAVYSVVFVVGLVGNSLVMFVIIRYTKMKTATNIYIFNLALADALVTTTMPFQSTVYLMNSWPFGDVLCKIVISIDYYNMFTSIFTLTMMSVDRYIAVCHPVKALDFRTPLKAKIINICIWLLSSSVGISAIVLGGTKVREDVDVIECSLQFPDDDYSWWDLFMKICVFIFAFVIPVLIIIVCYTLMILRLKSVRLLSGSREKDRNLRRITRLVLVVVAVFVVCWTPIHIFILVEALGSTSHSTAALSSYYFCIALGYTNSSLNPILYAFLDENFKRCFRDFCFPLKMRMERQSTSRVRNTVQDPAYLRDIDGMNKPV

Molecules are shown by their SMILES.

For the molecule `CN1CC[C@@]2(C)c3cc(O)ccc3C[C@@H]1[C@@H]2NCCc1ccc(F)cc1` [Compound 101, (2R,6S,11R)-11-((4-fluorophenethyl)amino)-3,6-dimethyl-1,2,3,4,5,6-hexahydro-2,6-methanobenzo[d]azocin-8-ol], in assay [1], the “GTPγS μ Emax” value amounted to 104.00 ± 2.08%. As usually defined, the Ki is a measure of affinity in units of concentration, obtained from inhibition or displacement. As to `COc1ccc2c(c1)[C@@]1(C)CCN(C)C(C2)C1N1CCC(N)CC1` (stereo partly drawn) [Compound 70, 1-((6R)-8-methoxy-3,6-dimethyl-1,2,3,4,5,6-hexahydro-2,6-methanobenzo[d]azocin-11-yl)piperidin-4-amine], the Ki in assay [2] is 4.72 µM.

The values are drawn from patent publication US10138207B2, “Benzomorphan analogs and the use thereof” (priority 2012, dated 2018).
